This passage reports Ki and IC50 results from publication PMC6412401, “Selective Inhibition of Human Monoamine Oxidase B by Acacetin 7-Methyl Ether Isolated from Turnera diffusa (Damiana)” (Molecules, 2019).

By UniProt entry, the sequences of proteins in these tests, tags left out.
UniProt P27338, whole entry: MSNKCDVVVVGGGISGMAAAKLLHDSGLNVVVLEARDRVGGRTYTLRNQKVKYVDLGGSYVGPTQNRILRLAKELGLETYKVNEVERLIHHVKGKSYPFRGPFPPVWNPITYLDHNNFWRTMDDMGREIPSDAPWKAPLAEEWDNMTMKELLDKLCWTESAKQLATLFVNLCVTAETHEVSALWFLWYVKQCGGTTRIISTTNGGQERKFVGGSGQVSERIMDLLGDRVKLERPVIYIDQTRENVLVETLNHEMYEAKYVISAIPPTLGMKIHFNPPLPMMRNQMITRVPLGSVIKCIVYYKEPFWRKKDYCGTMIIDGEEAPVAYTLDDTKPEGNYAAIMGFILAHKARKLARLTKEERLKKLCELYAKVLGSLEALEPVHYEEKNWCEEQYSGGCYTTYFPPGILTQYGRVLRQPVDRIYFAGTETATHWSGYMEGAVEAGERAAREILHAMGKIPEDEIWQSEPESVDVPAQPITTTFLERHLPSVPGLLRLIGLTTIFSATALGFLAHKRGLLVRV

For test [1], the target named is T1, recombinant human MAO-B (Homo sapiens, UniProt P27338). As to the kind of experiment: Enzyme kinetics and mechanism studies (Lineweaver-Burk).
Test [2] concerns the target T1, recombinant human MAO-B. As to the kind of experiment: MAO-B inhibition assay (kynuramine oxidative deamination).

Each structure is given as a SMILES string.

For orientation: Ki means the equilibrium dissociation constant of an inhibitor or competing ligand from its target. What is called IC50 is the midpoint of a concentration-inhibition curve.

`COc1ccc(-c2cc(=O)c3c(O)cc(O)cc3o2)cc1` [Acacetin]: on recombinant human MAO-B [1], the inhibition constant Ki was determined as 36 ± 4 nM. Moreover, on recombinant human MAO-B [2], the IC50 came to 50 ± 2.5 nM.
